AlphaSeq binding of Ab-14 light chain variants to a spike HR2 peptide

Values reported by Li et al. 2023, doi:10.1038/s41467-023-39022-2 (FLAb copy).

Binding partner: SARS-CoV-2 spike HR2 peptide, sequence PDVDLGDISGINAS.

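The parent was found by panning a naive human phage display library on the peptide. The variants were designed computationally from a first round of random CDR variants and then made and measured. Group labels follow the data file (En: ensemble of fine-tuned language models; GP: Gaussian process model; HC: hill climbing; Gen: genetic algorithm; Gibbs: Gibbs sampling; a sequence that several methods proposed may carry one label only). In AlphaSeq, yeast of one mating type display the scFv and yeast of the other type display the target. Mating (16 h, 30 °C) was followed by selection of diploids and sequencing of their barcodes. The ratio of observed to expected reads was calibrated, replicate by replicate, on BCL2-family standards whose Kd was known from biolayer interferometry. The assay was run in six technical replicates.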

Parent: Ab-14, a human scFv built as VH, a (GGGGS)3 linker, VL. Only the CDRs of the light chain vary.
VH: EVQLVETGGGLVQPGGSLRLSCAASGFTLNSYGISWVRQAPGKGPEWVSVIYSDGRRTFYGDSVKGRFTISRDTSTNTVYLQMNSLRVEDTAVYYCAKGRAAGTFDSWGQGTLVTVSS
VL: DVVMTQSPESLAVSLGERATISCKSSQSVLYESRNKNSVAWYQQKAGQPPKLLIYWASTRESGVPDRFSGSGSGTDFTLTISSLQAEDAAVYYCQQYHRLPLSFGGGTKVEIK

The parent's light chain CDRs are KSSQSVLYESRNKNSVA, WASTRES, QQYHRLPLS; each variant's own CDRs replace them letter for letter. Variants here have more than six changes. Each Kd is an estimate from the mating assay, the geometric mean of the replicates in which the pair was seen; lower is stronger. An entry "no signal" has no value in the source: the pair was not observed among the diploids in any replicate. This suggests poor binding but is not conclusive. The parent sequence was in this pool as ten entries: three were never detected, three once, and four in most replicates, with averages from 2.2 nM to 240 nM.

The variant NLVGRVPDMYDGRNAIA | DMHCRAT | QQYERLPLA [En_Gibbs] showed 8.8 nM (6 of 6 replicates).
The variant KMSQEVPLESRNVNSVA | MASTREM | QQYHRLPLS [GP_Gibbs] showed 2.5 nM (6 of 6 replicates).
The variant QFSNVNMQGNAQWANVA | EATYAEE | QQYARLPLQ [En_Gibbs] showed 5.3 nM (6 of 6 replicates).
The variant HLEQSELYESRMKNSVA | NASTRMS | QQYHRLPLS [GP_Gibbs] showed 2.0 nM (6 of 6 replicates).
The variant KLYSAKQGDIAQMQNVA | AADVLTQ | QQYNKLPLS [En_Gibbs] showed 2.7 nM (6 of 6 replicates).
The variant KLRQVTGYESYMRNSVA | QMSTRAE | QDYHRLPLS [En_HC] showed 7.0 nM (6 of 6 replicates).
The variant TLYGLSMSMSKNVNNVA | EMSTREN | QQYDRLPLS [En_Gen] showed 3.5 nM (6 of 6 replicates).
The variant TLQQSWEYGSRNKNSVA | NASQRED | QQYHRLPLS [GP_Gibbs] showed 750 pM (6 of 6 replicates).
The variant MIEIIQDGYDEMRSAIA | DTNLVRM | QQYYRLPLM [En_Gibbs] showed 7.3 nM (2 of 6 replicates).
The variant IVSQLMLWGMHAKNSIA | EAHTRLN | QQYDRLPLF [En_Gen] showed no signal (0 of 6 replicates).
The variant MVYSAVMLGGSTRNSIA | NAQTRCD | QQYHRLPLI [En_Gen] showed 2.9 nM (6 of 6 replicates).
The variant KLVNFMNRGTHHTSNIA | DAQNRID | QQYYRLPLA [En_Gen] showed 3.3 nM (6 of 6 replicates).
The variant MISQLYNMGQFAINSVA | QASERNE | QQYDRLPLI [En_Gen] showed 170 nM (1 of 6 replicates).
The variant KLMQSMGYEQRNFNSVA | QASQRSS | QQYHRLPLS [GP_Gibbs] showed 4.2 nM (6 of 6 replicates).
The variant KLSQSVRMESFVKDNVA | ENSTREE | QDYHRLPLS [En_HC] showed 42 nM (2 of 6 replicates).
The variant KLMEQFGHSMDHANNIA | EVDMLAQ | QQYMHLPLI [En_Gibbs] showed 1.8 nM (6 of 6 replicates).
The variant KYSQSDEYESRQFNSVA | NASTRLM | QQYHRLPLS [GP_Gibbs] showed 1.5 nM (6 of 6 replicates).
The variant MFSQTVMYGSTMRNNVA | QTSTRES | QQYDRLPLS [En_HC] showed 9.1 nM (6 of 6 replicates).
The variant NFGQKMALYTGDRYSIA | DATVEAD | QQYSRLPLT [En_Gibbs] showed 5.8 nM (6 of 6 replicates).
The variant QLSLMLNDMDARMWNVA | EGNQLKA | QDYHRLPLH [En_Gibbs] showed no signal (0 of 6 replicates).
The variant KFAGGLDYNNAHKSAIA | HADIRNI | QQYFRLPLD [En_Gibbs] showed 31 nM (6 of 6 replicates).
The variant KIYQFGLNHTHNTNSIA | DQECREA | QQYDRLPLS [En_Gen] showed 53 nM (4 of 6 replicates).
The variant KVDFLGDYEQRNKNSVA | SASTRES | QQYHRLPLS [GP_Gibbs] showed 660 pM (6 of 6 replicates).
The variant KVQQSMEYESRNKNSVA | EASDRES | QDYHRLPLF [GP_Gibbs] showed 21 nM (6 of 6 replicates).
The variant HLSAMWGLESVKHNNVA | ENNTREQ | QQYDRLPLS [En_Gen] showed 16 nM (6 of 6 replicates).
The variant KLSESAHFESRKKNSVA | ENSTREN | QQYDHLPLS [En_HC] showed 86 nM (4 of 6 replicates).
The variant KYWQSHLGESRNWNAVA | NASTREE | QQYHRLPLS [GP_Gibbs] showed 75 nM (6 of 6 replicates).
The variant KISQTVLYQGRLWNAVA | QMSTREN | QQYDRLPLS [En_HC] showed no signal (0 of 6 replicates).
The variant KMSQSMPYEQRAKNSVA | NASQRES | QQYHRLPLS [GP_Gibbs] showed 2.6 nM (6 of 6 replicates).
The variant TIAQSMLYLSNTKNSIA | QAETRES | QQYHRLPIS [En_HC] showed 1.6 nM (6 of 6 replicates).
The variant KLNVSYLFEQLEKNSIA | ENSTREK | QHYHRLPLS [En_HC] showed 1.3 µM (2 of 6 replicates).
The variant KLSQSQLYDSRNKNSVA | QAHHREV | QQYHRLPLS [GP_Gibbs] showed 2.3 nM (6 of 6 replicates).

A selection of 5 entries from above:

{"CDR-L1": "HLSAMWGLESVKHNNVA", "CDR-L2": "ENNTREQ", "CDR-L3": "QQYDRLPLS", "group": "En_Gen", "Kd (apparent)": "16 nM", "replicates with signal": "6/6"}
{"CDR-L1": "KIYQFGLNHTHNTNSIA", "CDR-L2": "DQECREA", "CDR-L3": "QQYDRLPLS", "group": "En_Gen", "Kd (apparent)": "53 nM", "replicates with signal": "4/6"}
{"CDR-L1": "QLSLMLNDMDARMWNVA", "CDR-L2": "EGNQLKA", "CDR-L3": "QDYHRLPLH", "group": "En_Gibbs", "Kd (apparent)": "no signal", "replicates with signal": "0/6"}
{"CDR-L1": "QFSNVNMQGNAQWANVA", "CDR-L2": "EATYAEE", "CDR-L3": "QQYARLPLQ", "group": "En_Gibbs", "Kd (apparent)": "5.3 nM", "replicates with signal": "6/6"}
{"CDR-L1": "MFSQTVMYGSTMRNNVA", "CDR-L2": "QTSTRES", "CDR-L3": "QQYDRLPLS", "group": "En_HC", "Kd (apparent)": "9.1 nM", "replicates with signal": "6/6"}

Empty control strains, which show no peptide, gave a signal in 4% of pairings with all light chain designs; the median was 430 nM and 95% of these signals were weaker than 38 nM. No background was subtracted. The authors' rule: three or more of the six replicates give a measured affinity, fewer mean a poor binder. The range of this assay differs from that of the first round, and the authors advise against merging the two.